Source: US9364496B2, “Custirsen treatment with reduced toxicity” (ONCOGENEX TECHNOLOGIES INC., priority 2013, dated 2016)
“And” between values parts separate entries of the source, which are not always exact repeats. Equal entries are not always repeated. Oligonucleotides are written 5' to 3', each unit as a sugar letter and its base; * is a phosphorothioate linkage, no mark a phosphodiester; rarer units and linkages stand in square brackets, end groups in braces. Plain capitals give the bases only. e = 2'-O-(2-methoxyethyl) (MOE); [5mC] = 5-methylcytosine; d = 2'-deoxy (DNA)

Legend:
[1] = system: RPMI 8226 (human myeloma) xenograft; assay: In vivo activity of custirsen with Velcade, RPMI 8226 xenograft (Example 14)
Experimental: The cells were implanted subcutaneously into female SCID mice with 7×10^6 cells inoculum.
Tumors and body weights were measured weekly until termination of the study on day 71. Response to treatment was evaluated for tumor growth inhibition (TGI) and tumor growth delay (TGD).
70 CB.17 SCID female mice, 4-6 weeks old, 16-20 grams, obtained from Harlan animal breeding center.
Sample from the cell suspension was taken for counting (0.3 ml in duplicates for CEDEX) before spun down. Cell viability was 85.6% and live cell concentration was 167×10^5 cells/ml. The pellet was resuspended in HBSS to a final volume of 8 ml.
Tumors were implanted subcutaneously with RPMI-8226 cells into the right flank of the mouse on Day 0. Each animal received a s.c. injection 7×10^6 cells in 0.1 ml suspension. On day 20, mice were sorted by the optimal tumor volume ([…]) and were allocated into 5 groups of 10 mice. Mice were individually tagged and their tumor volume and body weight were monitored weekly during the study. Tumor size was measured by caliper and calculated using the formula: […]
The treatment started on […] (0.2 ml per 20 grams v/w) and continued till day 52, after which the remaining mice were left for observation until day 71.

[2] = system: RPMI 8226 (human myeloma) xenograft; assay: In vivo activity of custirsen (TV-1011), different doses and regimens with Bortezomib, RPMI 8226 xenograft (Example 15); conditions: group 8: TV-1011 30 mg/kg qd*5, 40 mg/kg biwk, individual animals
Experimental: 120 CB.17 SCID female mice, 4-6 weeks old, 16-20 grams, obtained from Harlan animal breeding center.
Cells (originated from ATCC) were cultured on RPMI medium. Cell suspension was centrifuged and resuspended in 50% Matrigel/HBSS to a final concentration of 7×10^7 cells/ml. The suspension was implanted s.c. in the right flank of the anesthetized mouse at a volume of 100 μl.
Seven ml saline were added to the original vial containing 3.5 mg powder resulting in 0.5 mg/ml. Three ml of this solution were added to 27 ml saline to receive 0.05 mg/ml concentration. […] 28.5 ml of 4 mg/ml were added to 9.5 saline to receive 3 mg/ml.
Mice were implanted subcutaneously, with 7×10^6 RPMI 8226 cells/mouse (in 50% Martigel/HBSS) on Day 0. On day 21, mice were sorted by the optimal average tumor volume (˜130 mm3) and were allocated into eight groups of 10 mice each.
The treatment started on day 21 post implant, 0.2 ml per 20 grams v/w.
[formula] The analysis of weight gain and tumor volume progression was made using one-way ANOVA followed by Tukey post-hoc comparisons.

[3] = OGX 40 ip qd*5, twk, individual mouse, listed as OGX

## CC(C)C[C@H](NC(=O)[C@H](Cc1ccccc1)NC(=O)c1cnccn1)B(O)O [Velcade®, Bortezomib, reference compound]
[1]; Velcade 0.5 mg/kg iv biwk, earlier day (day not given), individual mouse, tumor
  Δ volume: 575.7
[1]; Velcade 0.5 mg/kg iv biwk, individual mouse
  Day 20 volume: 123
[1]; Velcade 0.5 mg/kg iv biwk, individual mouse, vs Day 20
  Day 34 Δ volume: 123.0

## Custirsen: anti-clusterin antisense oligonucleotide CAGCAGCAGAGTCTTCATCAT, phosphorothioate backbone, 2′-O-methoxyethyl at nucleotides 1-4 and 18-21, 5-methylcytosines at 1, 4, 19 (antisense e[5mC]*eA*eG*e[5mC]*dA*dG*dC*dA*dG*dA*dG*dT*dC*dT*dT*dC*dA*eT*e[5mC]*eA*eT; listed as Homo sapiens)
[1]; OGX 40 ip qd*5, twk, Day 48, group mean
  % of baseline (weight): 105.3%
[1]; OGX 40 ip qd*5, twk, Day 48, individual mice, listed as OGX
  % of baseline (weight): 104.2%
[1]; OGX 40 ip qd*5, twk, Day 51, group mean
  % of baseline (weight): 105.3%
[1]; OGX 40 ip qd*5, twk, Day 51, individual mice, listed as OGX
  % of baseline (weight): 105.4% and 104.2% and 105.1%
[1]; OGX 40 ip qd*5, twk, Day 63, individual mice, listed as OGX
  % of baseline (weight): 104.7%
[1]; OGX 40 ip qd*5, twk, earlier day (day not given), individual mouse, weight, listed as OGX
  % of baseline: 105.5% and 104.8% and 106.0%
[1]; OGX 40 ip qd*5, twk, group Mean, n 9
  Day 45 % of baseline (weight): 105.6%
[1]; [3]
  Day 27 % of baseline (weight): 104.8% and 101.1% and 100.8%
  Day 41 % of baseline (weight): 105.9% and 106.0%
  Day 45 % of baseline (weight): 105.6% and 101.3% and 106.1%
[2]; Day 28
  % of baseline (weight): 104.4%
[2]; Day 41 vs Day 21
  Δ % (weight): 12.3%
